From ChEMBL document CHEMBL3351443, “Development of 3-hydroxycinnamamide-based HDAC inhibitors with potent in vitro and in vivo anti-tumor activity” (Eur J Med Chem, 2015)

Target: Histone deacetylase
Experiment: Inhibition of HDAC in human HeLa cell extract using Boc-Lys (acetyl)-AMC as substrate incubated for 10 mins prior to substrate addition measured after 30 mins by fluorescence assay
Type: protein assay

SMILES: O=C(/C=C/c1cccc(OC[C@H](Cc2c[nH]c3ccccc23)NC(=O)c2ccc(Cl)cc2)c1)NO
- IC50: 369.8 nM
